# Yeast mating assay B: variants of the scFv Ab-14

Binding partner: SARS-CoV-2 spike HR2 peptide, sequence PDVDLGDISGINAS.

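Designed CDR sequences, proposed from the first random library and measured here. Group labels follow the data file (Ctrl: baseline library sampled from a position-specific scoring matrix, with some repeated check sequences; Rand: our label for a block that the file lists under HC and that is probably the random mutants of the ten best first-round binders; En: ensemble of fine-tuned language models; GP: Gaussian process model; GPLM: also part of the Gaussian process libraries; HC: hill climbing; Gen: genetic algorithm; Gibbs: Gibbs sampling; a sequence that several methods proposed may carry one label only). Affinity was read by AlphaSeq, a pooled yeast mating assay with surface-displayed partners. The frequency of each diploid, read from paired DNA barcodes, reflects how well the two displayed proteins bind. Each replicate has its own calibration line, from reference interactions of the BCL2 family. There are six technical replicates.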

Each scFv is VH, the linker GGGGSGGGGSGGGGS, VL, as in the parent Ab-14, and differs from it in the CDRs of the heavy chain only.
VH: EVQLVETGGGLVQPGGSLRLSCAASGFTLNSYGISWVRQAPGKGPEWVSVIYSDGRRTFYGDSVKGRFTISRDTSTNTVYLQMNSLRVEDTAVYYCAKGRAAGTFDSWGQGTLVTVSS
VL: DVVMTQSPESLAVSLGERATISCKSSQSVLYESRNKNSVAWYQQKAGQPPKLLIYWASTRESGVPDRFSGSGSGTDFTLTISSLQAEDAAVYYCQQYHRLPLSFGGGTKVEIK

The parent's heavy chain CDRs are GFTLNSYGIS, VIYSDGRRTFYGDSVK, GRAAGTFDS; each variant's own CDRs replace them letter for letter. Scale: log10 of Kd in nM, estimated from mating counts; low values are strong binders. The mean shown is taken over the replicates in which the pair was detected. Where no diploid with the target was found in any replicate, the entry reads "no signal": below detection, most likely a poor binder, though not proof of it. Three control strains display no target. For all heavy chain designs, 1% of the pairings with them gave a signal, with a median of 2.08 and one signal in twenty below 0.84, so weak values seen in few replicates may be background. For each scFv, signals with the empty controls are counted beside the result. A sequence measured in both rounds can read differently, since the two assays cover different ranges. The parent sequence was in this pool as ten entries: three were never detected, three once, and four in most replicates, with averages from 0.34 to 2.37. The authors averaged sequences with at least three values out of six and counted those with two or fewer as poor binders.

| mean log10 Kd (nM) | detected | control signals | CDR-H1 | CDR-H2 | CDR-H3 | group |
|---|---|---|---|---|---|---|
| 1.14 | 1 of 6 | 0 of 18 | GMGLSEYGIS | VIYADGMRTSYDNSVK | GAWAGTFDE | En_Gibbs |
| 2.30 | 2 of 6 | 0 of 18 | GFTLNSYGIS | VIYSDGRRTFYSDSVK | GKAVGTFDS | GP_HC |
| no signal | 0 of 6 | 0 of 18 | GFTLNEYGIS | VIYSDGRRTFYGDSVK | GRFAGTFDQ | GP_HC |
| 1.89 | 5 of 6 | 1 of 18 | GFTLNEYGIS | VIYSDGRRTIYSDSVK | GRWAGTFDS | Ctrl |
| 1.20 | 1 of 6 | 0 of 18 | GFPPNSYGIS | VIYSDGRRKFYGDSVK | GRAAGTFDS | Ctrl |
| 2.70 | 1 of 6 | 0 of 18 | GFQLNEYGIS | VIYADGHRSEYADKVK | GGINSSFLV | En_Gibbs |
| no signal | 0 of 6 | 0 of 18 | GFTLNSYGIH | VIYSDGRRTAYGDSVK | GRNVGTFDL | Ctrl |
| no signal | 0 of 6 | 1 of 18 | GFDLNSYGIS | VIYSDGRRTFYGDSVK | GRPAGWFNS | Rand |
| 2.34 | 2 of 6 | 0 of 18 | GEELQSYGIS | VIYSDGRRTFYGDSVK | GRLAGTFDS | Ctrl |
| -0.57 | 6 of 6 | 0 of 18 | GFDLNEYGIS | VIYADGMRTSYADSVK | GNVAGTFDQ | En_Gen |
| no signal | 0 of 6 | 0 of 18 | GFTLNDYGIS | VIYSDGRRTMYIDSVK | GRAAGTFWS | GPLM_HC |
| 1.30 | 1 of 6 | 0 of 18 | GFTLRSYGIS | VIYSDGRRTFYGDRVK | GRAAGTFDL | Ctrl |
| 0.81 | 6 of 6 | 0 of 18 | GFTLNSYGIS | VIYSDGKRTFYGDDVK | GQAAGTFDT | GP_Gibbs |
| -0.03 | 1 of 6 | 0 of 18 | GFDLNSYGIS | VIYSDGRRTFYCDRVK | GRTAGTFDS | GP_Gen |
| -0.17 | 6 of 6 | 0 of 18 | GFDLNEYGIS | VIYADGSRTAYSDSVK | GENAGTFDM | En_Gen |
| no signal | 0 of 6 | 0 of 18 | GFQLDEYGIS | VIYADGKRTAYAQNFK | GNGLVLYEG | En_Gibbs |
| 2.07 | 5 of 6 | 0 of 18 | GHTLNEYGIS | VIYSDGLRTFYIDSVK | GEAAGTFDV | Ctrl |
| -0.55 | 6 of 6 | 1 of 18 | GFDLNEYGIS | VIYADGMRTAYSDDVK | GEVAGTFDL | En_Gen |
| no signal | 0 of 6 | 0 of 18 | GFTLNSYGIS | VIYSDGRRTFYGDSVV | GYAAATFDS | Ctrl |
| -0.07 | 6 of 6 | 1 of 18 | GFDLNEYGIS | VIYADGMRTFYSDSVK | GNVGGSFDV | En_HC |
| -0.28 | 6 of 6 | 0 of 18 | GFDLNEYGIS | VIYADGMRTVYADSVK | GNEAGTFDI | En_Gen |
| no signal | 0 of 6 | 0 of 18 | GKGLDEYGVS | VIYADGKRHSYVDDVK | GGIAGQFLV | En_Gibbs |
| no signal | 0 of 6 | 0 of 18 | GITLNEYGIS | VIYSDGRRTFYTDSLK | GRFAGTFDE | Rand |
| 0.92 | 6 of 6 | 0 of 18 | GFDLNEYGIS | VIYADGRRTFYADSVK | GENAGTFVQ | En_HC |
| 1.32 | 6 of 6 | 0 of 18 | GFDLNSYGIS | VIYSDGRRTFYGDSVK | QRAAGTFDW | Ctrl |
| 0.23 | 6 of 6 | 1 of 18 | GFSLNEYGIS | VIYSDGRRTFYGDSVK | GRWAGTFDS | GPLM_Gen |
| -0.24 | 6 of 6 | 0 of 18 | GFTLKSYGIS | VIYADGRRTFYGDSVK | GKAAGTFDV | GP_Gibbs |
| no signal | 0 of 6 | 0 of 18 | GFTLNSYGIS | VIYSDGRRTFYGDSTK | ERNADTFDS | Ctrl |
| -0.60 | 6 of 6 | 1 of 18 | GFDLNEYGIS | VIYADGVRTFYIDSVK | GTNAGTFDV | En_HC |
| -0.43 | 6 of 6 | 0 of 18 | GFDLNEYGIS | VIYADGLRTQYIDSVK | GEQAGTFDV | En_HC |
| no signal | 0 of 6 | 0 of 18 | GFDLNSYGIS | VIYADGRRTFYGDSVK | GRAATTFDS | Ctrl |
| 2.62 | 6 of 6 | 1 of 18 | GFTLNSYGIS | VIYSDGFRTAYGDSVK | GRAGGTFDS | Ctrl |
| -0.21 | 6 of 6 | 0 of 18 | GFDLNEYGIS | VIYADGSRTFYADSVK | GQTAGTFDA | En_HC |
| 1.12 | 6 of 6 | 0 of 18 | GFTLNSYGIS | VIYSDGRRVFYSDSVD | GRCPGTFDS | Ctrl |
| -0.55 | 6 of 6 | 1 of 18 | GFDLNEYGIS | VIYADGKRSAYADSVK | GNVAGTFDV | En_Gen |
| 0.47 | 6 of 6 | 0 of 18 | GFELNEYGIS | VIYSDGMRTFYVDSVK | GRQAGTFDS | GP_Gibbs |
| -0.55 | 5 of 6 | 0 of 18 | GFTLNEYGIS | VIYSDGRRTFYTDSVK | GRIAGTFDS | GPLM_HC |
| 4.48 | 1 of 6 | 1 of 18 | GFDLNEYGVS | VIYADGIRSTYADSFK | GNVGVAFFQ | En_Gibbs |
| no signal | 0 of 6 | 0 of 18 | TFTLDSYGIS | VIYSDGRRTFYGDSVK | GRAAGTFDS | Ctrl |
| 0.21 | 5 of 6 | 0 of 18 | GFSLNSYGIS | VIYSDGRRTFYVDSVK | GSTAGTFDS | GPLM_Gen |
| no signal | 0 of 6 | 1 of 18 | GFHLGDYGIS | VIYSDGRRTGYGDSVK | GSAAGTFHS | Ctrl |
| 0.58 | 6 of 6 | 0 of 18 | GFSLNSYGIS | VIYSDGRRTFYKDSVK | GNTAGTFDT | GP_Gibbs |
| no signal | 0 of 6 | 1 of 18 | GPSLDEFGIS | VIYADGMRTAYTDSVK | GLVAATFVD | En_Gibbs |
| -0.46 | 6 of 6 | 0 of 18 | GFDLNEYGIS | VIYADGRRTSYIDSVK | GENAGTFDV | En_HC |
| 1.58 | 1 of 6 | 2 of 18 | GFVLQSYGIS | VIYSDGRRTFYNDSVK | GKAAGTFRD | Ctrl |
| no signal | 0 of 6 | 0 of 18 | KFDLEAYGIS | VIYADGVRAAYVDKVK | GQTGGMFDQ | En_Gibbs |
| no signal | 0 of 6 | 0 of 18 | GFDLDEYGVS | VIYADGNRNQYTEDVK | GTNSGAVDM | En_Gibbs |
| no signal | 0 of 6 | 0 of 18 | GFSLNDYGIS | VIYSDGRRTFYDDSVK | GRAAGTFIS | GP_HC |
| 0.05 | 6 of 6 | 0 of 18 | GFKLNEYGIS | VIYSDGRRTFYGDSVK | GEAAGTFDS | Ctrl |
| 0.36 | 6 of 6 | 0 of 18 | GFTLDSYGIS | VIYSDGRRTFYGDSVK | GQLAGTFDS | GP_HC |

Excerpt, the first 3 entries:

CDR-H1,CDR-H2,CDR-H3,group,mean log10 Kd (nM),detected,control signals
GMGLSEYGIS,VIYADGMRTSYDNSVK,GAWAGTFDE,En_Gibbs,1.14,1 of 6,0 of 18
GFTLNSYGIS,VIYSDGRRTFYSDSVK,GKAVGTFDS,GP_HC,2.30,2 of 6,0 of 18
GFTLNEYGIS,VIYSDGRRTFYGDSVK,GRFAGTFDQ,GP_HC,no signal,0 of 6,0 of 18

Data: MIT Lincoln Laboratory AlphaSeq set, Li et al. 2023, doi:10.1038/s41467-023-39022-2, as distributed in FLAb.